pIC50: −log10 of the molar value.
Target: T1, human LTA4 hydrolase (Homo sapiens, UniProt P09960)
T1 sequence (P09960 1-611): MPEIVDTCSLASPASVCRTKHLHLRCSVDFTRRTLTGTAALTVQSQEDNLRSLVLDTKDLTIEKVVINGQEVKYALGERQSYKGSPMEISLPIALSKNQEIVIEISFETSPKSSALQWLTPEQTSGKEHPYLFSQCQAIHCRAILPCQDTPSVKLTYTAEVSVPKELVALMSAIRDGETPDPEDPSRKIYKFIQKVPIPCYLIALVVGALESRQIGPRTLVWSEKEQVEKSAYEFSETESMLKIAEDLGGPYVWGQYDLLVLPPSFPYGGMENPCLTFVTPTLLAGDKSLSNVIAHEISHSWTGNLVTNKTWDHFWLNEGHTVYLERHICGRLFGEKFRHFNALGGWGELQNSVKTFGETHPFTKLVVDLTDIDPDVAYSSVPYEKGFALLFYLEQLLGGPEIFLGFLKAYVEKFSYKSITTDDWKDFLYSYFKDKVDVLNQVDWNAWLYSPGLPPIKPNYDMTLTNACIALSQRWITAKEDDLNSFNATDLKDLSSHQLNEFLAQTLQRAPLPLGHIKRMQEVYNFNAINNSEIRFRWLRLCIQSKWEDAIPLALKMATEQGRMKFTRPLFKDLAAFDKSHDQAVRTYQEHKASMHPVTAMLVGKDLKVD
Assay: LTA4H Enzyme assay (cleavage of Arg-AMC, fluorescence)
Assay type: biochemical
Conditions: LTA4H Enzyme 1 nM, Arg-AMC substrate 50 μM, room temperature 1 h
Procedure: The compounds of the invention are assessed for the ability to interact with human LTA4 hydrolase in an enzymatic assay that measures the ability of the enzyme to cleave the peptide bond of arginyl-aminomethylcoumarin (Arg-AMC). LTA4H Enzyme (1 nM final), Arg-AMC substrate (50 μM final), and compound are combined in a reaction buffer (50 mM Tris-HCl (pH 7.5), 100 mM KCl, 0.5% bovine serum albumin) at room temperature for 1 h. The formation of product is assessed by measuring the fluorescence of aminomethylcoumarin product (excitation wavelength 380 nm/emission wavelength 460 nm).

**Q.** CN(Cc1ccc([C@H]2COc3ccccc3O2)cc1)[C@H]1CCCC[C@@H]1O [Example 105, (1S,2S)-2-[{4-[(2S)-2,3-dihydro-1,4-benzodioxin-2-yl]benzyl}(methyl)amino]cyclo-hexanol] was tested. Which pIC50 did it give?
**A.** Its pIC50 is 9.29.

**Q.** CN(Cc1ccc([C@H]2COc3ccccc3O2)cc1)[C@H]1CCCC[C@H]1O [Example 106, (1R,2S)-2-[{4-[(2S)-2,3-dihydro-1,4-benzodioxin-2-yl]benzyl}(methyl)amino]cyclo-hexanol] was tested. Which pIC50 did it give?
**A.** The pIC50 was 9.34.

— patent US8946203B2, “Benzodioxane inhibitors of leukotriene production” (Boehringer Ingelheim International GmbH, priority 2012, dated 2015)
